Patent publication US20250197414A1, “SALT FORM AND CRYSTAL FORM OF VANIN ENZYME INHIBITOR, METHOD FOR PREPARING SAME, AND USE THEREOF” (SHANGHAI MEIYUE BIOTECH DEVELOPMENT CO., LTD., priority 2022, published 2025)

Key:
[1] = Solubility test of compound of formula I and its salts at 37° C.; format: physicochemical
Experimental: The solubility of the compound of formula I and the L-tartrate, fumarate, and D-malate thereof was studied in water, SGF, FaSSIF, FeSSIF, and pH 7.4 at 37° C.
Experimental method: 30 mg (in water) or 15 mg of the sample was weighed into a 4 mL vial, then 3 mL of the medium to be tested was added thereto, and the resulting mixture was stirred continuously at 37° C. 0.5 mL of the sample was collected at 1 hour and 24 hours, respectively, and centrifuged at 12,000 rpm for 5 minutes. The supernatant was diluted to an appropriate multiple with 50% acetonitrile and its concentration was determined.
Therefore, 13 mg of the fumarate of the compound of formula I was weighed into a 25 mL volumetric flask (approximately 10 mg added to the 25 mL volumetric flask, calculated as free base), dissolved in 50% acetonitrile aqueous solution and diluted to the scale, and two samples were prepared in parallel. STD-1 was diluted to 200 μg/mL, 50 μg/mL, and 10 μg/mL with 50% acetonitrile aqueous solution. 5 μL of the sample was injected, and the standard curve was plotted.

[2] = Solubility study on crystal form A at 37° C.; format: physicochemical
Experimental: The solubility of the crystal form Ain SGF, FaSSIF, FeSSIF, and pH 7.4 was evaluated.

Final pH ([1]; FeSSIF, 37° C.) | Final pH ([1]; SGF, 37° C.) | Final pH ([1]; pH 7.4, 37° C.) | Final pH ([1]; FaSSIF, 37° C.) | Final pH ([2]; FaSSIF, 37° C.) | Phenomenon ([2]; FaSSIF, 37° C.) | Solubility ([2]; FaSSIF, 37° C.) [µg/mL] | Final pH ([2]; FeSSIF, 37° C.) | Phenomenon ([2]; FeSSIF, 37° C.) | Solubility ([2]; FeSSIF, 37° C.) [µg/mL] | Final pH ([2]; SGF, 37° C.) | Phenomenon ([2]; SGF, 37° C.) | Solubility ([2]; SGF, 37° C.) [µg/mL] | solubility (in words) ([2]; all media (SGF, FaSSIF, FeSSIF, pH 7.4)) | Final pH ([2]; pH 7.4, 37° C.) | Phenomenon ([2]; pH 7.4, 37° C.) | Solubility ([2]; pH 7.4, 37° C.) [µg/mL] | SMILES
4.69 | 1.37 | 6.58 |  |  |  |  |  |  |  |  |  |  |  |  |  |  | O=C(c1cnc(N[C@@H]2CCc3ncccc32)nc1)N1CCC2(CCOCC2)C1 [Mono-L-tartrate of compound of formula I]
4.71 | 1.36 | 6.54 | 4.01 |  |  |  |  |  |  |  |  |  |  |  |  |  | O=C(O)C=CC(=O)O.O=C(c1cnc(NC2CCc3ncccc32)nc1)N1CCC2(CCOCC2)C1 (stereo not drawn) [Fumarate of compound of formula I]
4.75 | 1.36 | 6.60 | 4.47 |  |  |  |  |  |  |  |  |  |  |  |  |  | O=C(O)CC(O)C(=O)O.O=C(c1cnc(NC2CCc3ncccc32)nc1)N1CCC2(CCOCC2)C1 [D-malate of compound of formula I]
 |  |  |  | 4.32 | Solid dissolves immediately | >7600 | 4.77 | Solid dissolves immediately | >7300 | 1.29 | Solid dissolves immediately | >7100 | good solubility | 6.57 | Solid dissolves immediately | >7200 | O=C(O)C(O)C(O)C(=O)O.O=C(c1cnc(NC2CCc3ncccc32)nc1)N1CCC2(CCOCC2)C1 (stereo not drawn) [crystal form A]
